Experimental findings from PubChem BioAssay AID602332 (National Center for Advancing Translational Sciences (NCATS), 2012) are described below.

Each structure is given as a SMILES string. Values joined by “and” are separate entries in the source; they are usually repeats but may differ in a detail not shown here. Identical values can stand only once. This is a selection; strong and weak results do not stand in their true shares. Active and inactive are the calls of the source. The call rests on the fitted dose curve; in most records, active means well fitted activation curve with a large enough effect; inconclusive means small, poorly fitted or top-dose-only effect; inactive means no such curve, though single readings can be large or run the other way.

A short description of the test: qHTS for Inducers of the Endoplasmic Reticulum Stress Response (ERSR) in Human Glioma: qHTS. Further: % of control where 0% means no effect; nearly all actives have a fitted effect of over 35% in size. As to conditions: U87-MG GRP78 promoter luciferase reporter, 16 h; hits give high values.
Regarding `COc1ccccc1CNC(=O)COC(=O)C(O)(c1ccccc1)c1ccccc1`, the activation was inactive: -2.73%.

Consider `CC(C)/C=N\N=C(\N)N[N+](=O)[O-]`, for which the activation was inactive: 1.02%.

As for `CN(C(=O)Cc1ccc(Cl)c(Cl)c1)[C@@H]1CCCC[C@H]1N1CCCC1`, the activation is inactive: -3.62% and inactive: -0.758%.

Consider `CC1(CBr)Cn2c(nc3ccccc3c2=O)S1` (stereo unspecified), for which the activation was inactive: -4.75%.

For the compound `CCOP(=O)(NC(=NC(C)c1ccccc1)NC(C)c1ccccc1)OCC` (stereo unspecified), the activation is inactive: -1.08%.

As for `O=P1(Nc2ccccn2)COc2ccccc2OC1`, the activation was inactive: -4.36%.

On to `CCC1=CC2Cc3nc4ccc(Cl)cc4c(N)c3C(C1)C2` (stereo unspecified), for which the activation is inactive: -10.7%.

As for `CCOP(=O)(Nc1ccc(C)cn1)OCC`, the activation is inactive: -3.45%.

With `CN(CCCl)Cc1cc(Cl)c(NC2=NCCN2)c(Cl)c1`, the activation is inactive: -4.74% and inactive: -1.3% and inactive: -2.91%.

In the case of `CC(C)(C)C(=O)NC(Sc1ncccn1)C(Cl)(Cl)Cl` (stereo unspecified), the activation was inactive: -2.87%.

With `O=P1(N(CCCl)CCCl)NCCC(C(F)(F)F)O1` (stereo unspecified), the activation was inactive: 2.61%.

Take `Clc1n[nH]nc1-c1nn[nH][15n]1`: the activation is inactive: 2.8%.

Consider `Cc1ccc(S(=O)(=O)N(CCCN)CCCc2c(C)nc(N)[nH]c2=O)cc1`, for which the activation is inactive: -3.53%.

On to `O=P1(Nc2ncccn2)COc2ccccc2OC1`, for which the activation was inactive: -3.07%.

With `Nc1cccc([As](=O)(O)c2ccccc2)c1`, the activation is inactive: -0.389%.

Turning to `O=[As](O)(c1cccs1)c1cccs1`, the activation was inactive: -3.07%.

Take `Cc1ccc(OCC(=O)OC2CN3CCC2CC3)cc1` (stereo unspecified): the activation is inactive: -5.5%.

For the compound `O=P1(Nc2ccc(Br)cn2)COc2ccccc2OC1`, the activation is inactive: -1.27%.

`NS(=O)(=O)c1cccc(NC(=O)COC(=O)C(O)(c2ccccc2)c2ccccc2)c1`: the activation was inactive: -1.96%.

As to `CC1CCC(C(C)C)C(OP(=O)(Nc2ccccn2)c2ccccc2)C1` (stereo unspecified), the activation is inactive: -8.59%.

Regarding `Cc1ccc(C(=O)OC2CN3CCC2CC3)cc1` (stereo unspecified), the activation is inactive: -3.29%.

As to `COc1cc([N+](=O)[O-])ccc1[N+](=O)[O-]`, the activation was inactive: -7.78%.

For the compound `Cc1nn(-c2ccccc2)c2c1P(=O)(N1CCOCC1)N(C)C(c1ccccc1)=N2` (stereo unspecified), the activation was inactive: -1.34%.

Regarding `CN(C)C1(CNC(=O)c2ccc(S(C)(=O)=O)cc2)CCCCC1`, the activation was inactive: 1.4%.

On to `CCCC1OP(=O)(Nc2ccccc2)OCC1CC` (stereo unspecified), for which the activation is inactive: -1.87%.

With `O=C(/C=C/c1ccccc1)OC1CN2CCC1CC2` (stereo unspecified), the activation is inactive: -3%.

Turning to `NC(=O)Nc1ccc([As](=O)(O)O)cc1`, the activation was inactive: -2.56% and inactive: -0.776% and inactive: -4.37%.

As for `CN(C(=O)Cc1ccccc1)[C@@H]1CC[C@]2(CCCO2)C[C@H]1N1CCCC1`, the activation was inactive: -1.81% and inactive: 1.77%.

For `CCOP1(=S)c2c(C)nn(CCC#N)c2N=C(c2ccc(F)cc2)N1C` (stereo unspecified), the activation was inactive: -0.778%.

For the compound `N#CCCN(C(=O)COC(=O)C(O)(c1ccccc1)c1ccccc1)c1ccc(F)cc1`, the activation was inactive: -2.42%.

Take `CN(C(=O)Cc1ccc(Cl)c(Cl)c1)[C@H]1CC[C@@]2(CCCO2)C[C@@H]1N1CCCC1`: the activation was inactive: -1.82%.

On to `O=[N+]([O-])c1ccc2c(c1)nnn2O`, for which the activation is inactive: -2.51%.

Take `CN(C)C(=O)c1cc([N+](=O)[O-])cc2c1-c1c(cc([N+](=O)[O-])cc1[N+](=O)[O-])C2=O`: the activation was inactive: -12.1%.

Regarding `O=P(Nc1nccs1)(Oc1ccccc1)Oc1ccccc1`, the activation was inactive: -2.33%.

Take `O=P(Nc1nccs1)(c1ccccc1)c1nc2ccccc2s1` (stereo unspecified): the activation was inactive: -10.1%.

Turning to `CCOP1(=S)c2c(C)nn(CCC#N)c2N=C(c2ccccc2F)N1C` (stereo unspecified), the activation was inactive: -4.25%.

As to `CS(=O)(=O)c1cc([N+](=O)[O-])c2no[n+]([O-])c2c1`, the activation is inactive: 3.72%.

On to `Nc1ccccc1[As](=O)(O)c1ccccc1`, for which the activation was inactive: -2.45%.

In the case of `O=C(O)COc1ccc([As](=O)(O)O)cc1[N+](=O)[O-]`, the activation was inactive: -2.84%.

With `Nc1cccc2c([As](=O)(O)O)cccc12`, the activation is inactive: -8.41%.

Regarding `Cc1ccc(NCCc2c([N+](=O)[O-])cc([N+](=O)[O-])cc2[N+](=O)[O-])cc1`, the activation is inactive: -1.36%.

Regarding `CCCOP(=S)(Nc1nc(N)cc(=O)[nH]1)OCCC`, the activation is inactive: -2.38%.

In the case of `CCOP(=O)(Nc1cccc2ccccc12)OCC`, the activation was inactive: -1.2%.

Regarding `COc1cc(C2NCCC3(OCCO3)C2(C)C)cc(OC)c1OC` (stereo unspecified), the activation is inactive: -5.35%.

Take `CN(C(=O)Cc1ccc(Cl)c(Cl)c1)[C@@H]1CC[C@]2(CCCO2)C[C@H]1N1CCCC1`: the activation was inactive: 1.9% and inactive: -3.57%.

In the case of `O=C(OC1CN2CCC1CC2)c1ccc(Cl)cc1` (stereo unspecified), the activation is inactive: -1.79%.

As to `CS(=O)(=O)c1ccc(Cl)c(NC(=O)COC(=O)C(O)(c2ccccc2)c2ccccc2)c1`, the activation is inactive: -4.84%.

In the case of `O=[As](O)(O)c1cccnc1`, the activation was inactive: -1.89%.

Regarding `COc1cc(C(=O)NCC2(N3CCOCC3)CCCCC2)cc(Cl)c1OC(C)C`, the activation is inactive: -0.923%.

On to `Cc1cccc(OCC(=O)OC2CN3CCC2CC3)c1` (stereo unspecified), for which the activation was inactive: -6.03%.

As to `O=[As](O)(c1cccc(O)c1)c1cccc(O)c1`, the activation was inactive: -1.26%.

`O=[N+]([O-])c1cc(Oc2ccc([N+](=O)[O-])cc2C(F)(F)F)cc([N+](=O)[O-])c1`: the activation was inactive: -3.55%.

Take `COc1ccc(N/C(=N/P(=O)(N2CCOCC2)N2CCOCC2)N2CCOCC2)cc1`: the activation is inactive: -3.35%.

In the case of `Cc1c2c(nc3ccccc13)SC(C(Cl)Cl)C2` (stereo unspecified), the activation was inactive: 3.14%.

As for `Cc1cc(=O)[nH]c(N[N+](=O)[O-])n1`, the activation is inactive: -2.71%.

With `O=C(OC1CN2CCC1CC2)C12CC3CC(CC(C3)C1)C2` (stereo unspecified), the activation was inactive: -3.38%.

Take `O=P1(N(CCCl)CCCl)Nc2ccccc2N1`: the activation is inactive: 8.78%.

Turning to `O=P1(N(CCCl)CCCl)OCCCN1CCCl` (stereo unspecified), the activation is inactive: -2.33%.

Consider `COc1cc(I)ccc1[As](=O)(O)O`, for which the activation was inactive: -1.4%.

Turning to `COc1ccc2nc(NP(=O)(c3ccccc3)c3ccccc3)sc2c1`, the activation is inactive: -3.14%.

Turning to `ClCCSc1nnc(-c2cccnc2)o1`, the activation was inactive: 4.92%.

As to `O=Cc1ccc(NCCCl)cc1`, the activation was inactive: -3.46%.

As for `COC(=O)C1(C)COP(=O)(N2CCCCCC2)OC1` (stereo unspecified), the activation was inactive: -2.99%.

Regarding `CC(C)c1ccc(OP(=O)(Nc2ccccn2)Oc2ccccc2F)cc1` (stereo unspecified), the activation is inactive: -1.06%.

As to `O=[N+]([O-])c1cc([N+](=O)[O-])c(-c2ccn[nH]2)s1`, the activation is inactive: -1.76%.

For the compound `CC(C)NC(=O)NP(=O)(Oc1ccccc1)Oc1ccccc1`, the activation was inactive: 0.616%.

On to `O=C(OC1CN2CCC1CC2)c1cccc2[nH]cnc12` (stereo unspecified), for which the activation is inactive: 2.63%.

Turning to `CCN(CC)C(=S)SC(NC=O)C(Cl)(Cl)Cl` (stereo unspecified), the activation was inactive: -0.511%.

On to `O=[N+]([O-])c1ccc(-c2cc([N+](=O)[O-])c(O)c([N+](=O)[O-])c2)cc1`, for which the activation is inactive: -4.07%.

On to `COc1cc(C(=O)NCC2(N3CCOCC3)CCCCC2)ccc1OCC(C)C`, for which the activation was inactive: -0.278%.

As to `O=[As](O)(c1ccc(O)cc1)c1ccccc1O`, the activation is inactive: -3.95%.

Turning to `C[As](=O)(O)c1cccc(C(=O)O)c1`, the activation is inactive: -5.1%.

As for `ClCCN(CCCl)c1ccc(CC2C=CC=C2)cc1`, the activation is inactive: -1.37%.

For the compound `Cc1ccc(OP(=O)(Nc2ccc([N+](=O)[O-])cn2)Oc2ccc(C)cc2)cc1`, the activation is inactive: -4.72%.

As for `CCOC(=O)Nc1cccc([As](=O)(O)O)c1`, the activation is inactive: -0.986%.

Take `O=P(Nc1ccccn1)(c1cccc2ccccc12)c1cccc2ccccc12`: the activation is inactive: 0.907%.

In the case of `Cc1cc(SC(NC=O)C(Cl)(Cl)Cl)ncn1` (stereo unspecified), the activation is inactive: 0.782%.

Consider `O=[N+]([O-])c1ccc(Nc2ccc(Oc3ccc([N+](=O)[O-])cc3[N+](=O)[O-])cc2)c([N+](=O)[O-])c1`, for which the activation was inactive: 5.42%.

`CCOC(=O)Nc1ccc([As](=O)(O)O)c(O)c1`: the activation is inactive: -4.06%.

For `O=C(O)C(O)c1ccc(N(CCCl)CCCl)cc1` (stereo unspecified), the activation is inactive: -2.65%.

As to `CC1CCNP(=O)(N(CCCl)CCCl)O1` (stereo unspecified), the activation is inactive: -3.6%.

As to `COP(=O)(OC)N1CC1c1ccccc1` (stereo unspecified), the activation is inactive: -3.29%.

With `Cc1cc(SC(NC(=O)c2ccccc2)C(Cl)(Cl)Cl)nc(C(C)C)n1` (stereo unspecified), the activation was inactive: -0.584%.

For `CCCCOc1ccc(C(=O)NCC2(N3CCCCC3)CCCCC2)cc1OC`, the activation was inactive: 6.78%.

In the case of `CSc1ccc(Nc2c([N+](=O)[O-])cc([N+](=O)[O-])cc2[N+](=O)[O-])cc1`, the activation is inactive: -8.89%.

In the case of `O=C(OC1CN2CCC1CC2)c1cccc([N+](=O)[O-])c1` (stereo unspecified), the activation is inactive: -3.57%.

In the case of `CCOC(=O)c1ccc(NC(=O)C(C)(CCl)SC)cc1` (stereo unspecified), the activation was inactive: 4.94%.

As to `CCC(C)N(CC(C)C)C(=S)SC(NC(C)=O)C(Cl)(Cl)Cl` (stereo unspecified), the activation is inactive: -1.34%.

As to `CCOP(=O)(Nc1cccc2cccnc12)OCC`, the activation is inactive: -1.53%.

For the compound `COC(=O)C1(C)COP(=O)(N2CCCC2)OC1` (stereo unspecified), the activation is inactive: -3.83%.

As to `COP1(=S)c2c(C)nn(CCC#N)c2N=C(c2ccc(F)cc2)N1C` (stereo unspecified), the activation was inactive: -2.9%.

Consider `O=C(O)C(=O)c1ccc(N(CCCl)CCCl)cc1`, for which the activation is inactive: -1.32%.

In the case of `O=C(Nc1ccncc1[N+](=O)[O-])c1ccc([N+](=O)[O-])cc1[N+](=O)[O-]`, the activation was inactive: -6.06%.

As for `O=C(COc1ccccc1)OC1CN2CCC1CC2` (stereo unspecified), the activation is inactive: -0.751%.

`CCN(/C(=N/P(=O)(N1CCOCC1)N1CCOCC1)N1CCOCC1)c1ccc(OC)cc1`: the activation is inactive: -3.65%.

For `C[N+]1=C2C=CC=CC=C2SC12C([N+](=O)[O-])=CC([N+](=O)[O-])=C[C-]2[N+](=O)[O-]` (stereo unspecified), the activation is inactive: -9.66%.
